Assay results as given in patent publication US20220296583A1, “COMPOSITIONS AND METHODS FOR TREATMENT OF OVARIAN AND BREAST CANCER” (Board of Regents, The University of Texas System, priority 2021, published 2022).
Read-outs that look alike come from different tables or passages of the source.

Experiments:
OVCAR8 xenograft = test: OVCAR8 i.p. xenograft, Compound B and carboplatin; type: in vivo, mice; details: Compound B 50 mg/kg orally five days a week, carboplatin 25 mg/kg i.p. once a week, three weeks, p<0.05
Procedure: After treatment as indicated in (A) for three weeks, mice were weighed, and intraperitoneal nodules were excised and weighed. […] Mice were treated with single, double, or triple agents for 6 weeks. Tumor was measured once a week until the tumor burden in control group reached maximum allowance. The graphs indicate the mean±standard deviation. Statistical significance is indicated by *p<0.05, **p<0.01, and ***p<0.0001.
Six-week-old female athymic nu/nu mice were purchased from Envigo. Experiments were reviewed and all procedures were performed according to an animal protocol approved by the Institutional Animal Care and Use Committee of UT MD Anderson Cancer Center. […] Carboplatin was administrated i.p. once a week at a dose of 25 mg/kg. […] Carboplatin was treated at a dose of 30 mg/kg once a week for six weeks. […] At end of six weeks, the mice were sacrificed by CO2. The mice were dissected immediately after death and the tumors were collected and weighed.
OVCAR8 cells were injected intraperitoneally (ip) into nu/nu mice. Treatment started 7 days post injection. […] At the conclusion of the treatment, the mice were sacrificed, and the tumor was dissected and weighed (FIG. 23A). […] The tumor volume was measured at indicated time points (FIG. 23D).

MAXF Hs 578T [1] = tested on: MAXF Hs 578T
MAXF MDA-MB-231 [2] = tested on: MAXF MDA-MB-231
MAXF Hs 578T [3] = tested on: MAXF Hs 578T; remark: listed apart in the source
MAXF MDA-MB-231 [4] = tested on: MAXF MDA-MB-231; remark: listed apart in the source
[5] = Table 13, 3.2E−03 μM (first column)
[6] = Table 13, 3.2E−03 μM (third column)

COc1c(F)cc(F)cc1-c1c[nH]c2ncc(-c3cnn(C4CCN(S(C)(=O)=O)CC4)c3)cc12 [Compound B, 3-(3,5-difluoro-2-methoxyphenyl)-5-(1-(1-(methylsulfonyl)piperidin-4-yl)-1H-pyrazol-4-yl)-1H-pyrrolo[2,3-b]pyridine]
Test/Control (%) at drug Concentration [μM] (MAXF MCF 10A; 1.0E+00 μM): 121%
Test/Control (%) at drug Concentration [μM] (MAXF MCF 10A; 1.0E+01 μM): 116%
Test/Control (%) at drug Concentration [μM] (MAXF MCF 10A; 1.0E+02 μM): 74%
Test/Control (%) at drug Concentration [μM] (MAXF MX1; 1.0E+00 μM): 127%
Test/Control (%) at drug Concentration [μM] (MAXF MX1; 1.0E+01 μM): 118%
Test/Control (%) at drug Concentration [μM] (MAXF MX1; 1.0E+02 μM): 114%
tumor growth (tumor weight) (OVCAR8 xenograft): significantly enhanced the growth inhibitory effect of carboplatin
Test/Control (%) at drug Concentration [μM] (MAXF T47D; 1.0E+00 μM): 89%
Test/Control (%) at drug Concentration [μM] (MAXF T47D; 1.0E+01 μM): 76%
Test/Control (%) at drug Concentration [μM] (MAXF T47D; 1.0E+02 μM): 62%
Test/Control (%) at drug Concentration [μM] (MAXF ZR-75-1; 1.0E+00 μM): 100%
Test/Control (%) at drug Concentration [μM] (MAXF ZR-75-1; 1.0E+01 μM): 100%
Test/Control (%) at drug Concentration [μM] (MAXF ZR-75-1; 1.0E+02 μM): 94%
Test/Control (%) at drug Concentration [μM] (MAXF BT-549; 1.0E+00 μM): 88%
Test/Control (%) at drug Concentration [μM] (MAXF BT-549; 1.0E+01 μM): 54%
Test/Control (%) at drug Concentration [μM] (MAXF BT-549; 1.0E+02 μM): 27%
Test/Control (%) at drug Concentration [μM] (MAXF MDA-MB-453; 1.0E+00 μM): 80%
Test/Control (%) at drug Concentration [μM] (MAXF MDA-MB-453; 1.0E+01 μM): 56%
Test/Control (%) at drug Concentration [μM] (MAXF MDA-MB-453; 1.0E+02 μM): 33%
Test/Control (%) at drug Concentration [μM] (MAXF 401; 1.0E+00 μM): 104%
Test/Control (%) at drug Concentration [μM] (MAXF 401; 1.0E+01 μM): 79%
Test/Control (%) at drug Concentration [μM] (MAXF 401; 1.0E+02 μM): 52%
Test/Control (%) at drug Concentration [μM] (MAXF MCF7; 1.0E+00 μM): 92%
Test/Control (%) at drug Concentration [μM] (MAXF MCF7; 1.0E+01 μM): 76%
Test/Control (%) at drug Concentration [μM] (MAXF MCF7; 1.0E+02 μM): 59%
Test/Control (%) at drug Concentration [μM] (MAXF Hs 578T [1]; 1.0E+00 μM): 98%
Test/Control (%) at drug Concentration [μM] (MAXF Hs 578T [1]; 1.0E+01 μM): 40%
Test/Control (%) at drug Concentration [μM] (MAXF Hs 578T [1]; 1.0E+02 μM): 5%
Test/Control (%) at drug Concentration [μM] (MAXF MDA-MB-231 [2]; 1.0E+00 μM): 86%
Test/Control (%) at drug Concentration [μM] (MAXF MDA-MB-231 [2]; 1.0E+01 μM): 56%
Test/Control (%) at drug Concentration [μM] (MAXF MDA-MB-231 [2]; 1.0E+02 μM): 42%
Test/Control (%) at drug Concentration [μM] (MAXF BT-474; 1.0E+00 μM): 91%
Test/Control (%) at drug Concentration [μM] (MAXF BT-474; 1.0E+01 μM): 78%
Test/Control (%) at drug Concentration [μM] (MAXF BT-474; 1.0E+02 μM): 52%
Test/Control (%) at drug Concentration [μM] (MAXF Hs 578T [3]; Table 13, 1.0E+00 μM): 97%
Test/Control (%) at drug Concentration [μM] (MAXF Hs 578T [3]; Table 13, 1.0E+01 μM): 64%
Test/Control (%) at drug Concentration [μM] (MAXF Hs 578T [3]; Table 13, 1.0E+02 μM): 19%
Test/Control (%) at drug Concentration [μM] (MAXF Hs 578T [3]; Table 13, 1.0E−01 μM): 97%
Test/Control (%) at drug Concentration [μM] (MAXF Hs 578T [3]; Table 13, 1.0E−02 μM): 101%
Test/Control (%) at drug Concentration [μM] (MAXF Hs 578T [3]; Table 13, 3.2E+00 μM): 92%
Test/Control (%) at drug Concentration [μM] (MAXF Hs 578T [3]; Table 13, 3.2E+01 μM): 36%
Test/Control (%) at drug Concentration [μM] (MAXF Hs 578T [3]; Table 13, 3.2E−01 μM): 98%
Test/Control (%) at drug Concentration [μM] (MAXF Hs 578T [3]; [5]): 101%
Test/Control (%) at drug Concentration [μM] (MAXF Hs 578T [3]; [6]): 99%
Test/Control (%) at drug Concentration [μM] (MAXF SK-BR-3; 1.0E+00 μM): 106%
Test/Control (%) at drug Concentration [μM] (MAXF SK-BR-3; 1.0E+01 μM): 95%
Test/Control (%) at drug Concentration [μM] (MAXF SK-BR-3; 1.0E+02 μM): 72%
Test/Control (%) at drug Concentration [μM] (MAXF MDA-MB-231 [4]; Table 13, 1.0E+00 μM): 103%
Test/Control (%) at drug Concentration [μM] (MAXF MDA-MB-231 [4]; Table 13, 1.0E+01 μM): 80%
Test/Control (%) at drug Concentration [μM] (MAXF MDA-MB-231 [4]; Table 13, 1.0E+02 μM): 40%
Test/Control (%) at drug Concentration [μM] (MAXF MDA-MB-231 [4]; Table 13, 1.0E−01 μM): 103%
Test/Control (%) at drug Concentration [μM] (MAXF MDA-MB-231 [4]; Table 13, 1.0E−02 μM): 104%
Test/Control (%) at drug Concentration [μM] (MAXF MDA-MB-231 [4]; Table 13, 3.2E+00 μM): 95%
Test/Control (%) at drug Concentration [μM] (MAXF MDA-MB-231 [4]; Table 13, 3.2E+01 μM): 77%
Test/Control (%) at drug Concentration [μM] (MAXF MDA-MB-231 [4]; Table 13, 3.2E−01 μM): 103%
Test/Control (%) at drug Concentration [μM] (MAXF MDA-MB-231 [4]; [5]): 102%
Test/Control (%) at drug Concentration [μM] (MAXF MDA-MB-231 [4]; [6]): 105%
Test/Control (%) at drug Concentration [μM] (MAXF MDA-MB-468; 1.0E+00 μM): 104%
Test/Control (%) at drug Concentration [μM] (MAXF MDA-MB-468; 1.0E+01 μM): 87%
Test/Control (%) at drug Concentration [μM] (MAXF MDA-MB-468; 1.0E+02 μM): 43%
